The subject of the experiment is PSMA-expressing LNCaP cells. The experiment is described as follows: Antibody recruitment flow cytometry. The conditions noted are these: competitor added together with 3 and anti-DNP antibodies. A general note: A flow cytometer gives signals particle by particle.

Molecules are shown by their SMILES.

As to `NCCCC[C@@H](C(=O)O)N(c1ccc([N+](=O)[O-])cc1[N+](=O)[O-])c1ccc([N+](=O)[O-])cc1[N+](=O)[O-]`, the “effect of competitor on 3-mediated antibody recruitment (fluorescence)” value is given as “decrease in fluorescence”.

The values are drawn from patent US9296708B2, “Chimeric small molecules for the recruitment of antibodies to cancer cells” (YALE UNIVERSITY, priority 2008, dated 2016).
